Measured values from ChEMBL document CHEMBL5252561, “Evaluation of darunavir-derived HIV-1 protease inhibitors incorporating P2' amide-derivatives: Synthesis, biological evaluation and structural studies” (Bioorg Med Chem Lett, 2023).

Target: Human immunodeficiency virus type 1 protease (Human immunodeficiency virus 1) (UniProt Q72874)
Assay: Potency index, ratio of darunavir Ki to test compound Ki for inhibition of HIV-1 protease using Abz-NF-6 as substrate assessed as inhibition constant measured every 2 mins for 20 mins by fluorescence based […] analysis

**Q.** Which Ratio Ki does the source give for CC(=O)Nc1ccc(S(=O)(=O)N(CC(C)C)C[C@@H](O)[C@H](Cc2ccccc2)NC(=O)O[C@H]2CO[C@H]3OCC[C@H]32)cc1 here?
**A.** 20
